Laboratory results taken from patent US20190315854A1 (BEIJING VDJBIO, published 2019).
Like-named read-outs stand apart in the source and are kept apart here.

T1: sIL-6R (soluble IL-6 receptor; SBH Sciences) (human, UniProt P08887 20-365)
T1 construct: also called human IL-6R
T1 sequence: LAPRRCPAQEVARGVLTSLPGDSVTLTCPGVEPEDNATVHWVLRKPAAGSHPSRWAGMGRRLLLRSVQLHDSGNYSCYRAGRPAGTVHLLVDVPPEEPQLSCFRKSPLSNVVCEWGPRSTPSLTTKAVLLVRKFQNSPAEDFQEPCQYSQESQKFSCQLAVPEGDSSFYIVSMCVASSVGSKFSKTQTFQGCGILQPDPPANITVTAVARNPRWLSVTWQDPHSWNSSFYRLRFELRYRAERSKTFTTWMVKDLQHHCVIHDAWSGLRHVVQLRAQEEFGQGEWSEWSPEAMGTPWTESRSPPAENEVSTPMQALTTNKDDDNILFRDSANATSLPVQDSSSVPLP

B1: 2# (antibody, human IgG1, kappa)
heavy: QVQLQESGPGLVRPSQTLSLTCTVSGYSITSDHAWSWVRQPPGRGLEWIGYISYSGITTYNPSLKSRVTMLRDTSKNQFSLRLSSVTAADTAVYYCARCLARTTAMDYWGQGSLVTVSSASTKGPSVFPLAPSSKNTSGGTAALGCLVKDYFPEPVTVSWNSGALTSGVHTFPAVLQSSGLYSLSSVVTVPSSSLGTQTYICNVNHKPGNTKVDKKV[letters of human IgG1 Fc not shown]
light: DIQMTQSPSSLSASVGDRVTITCRASQDISSYLNWYQQKPGKAPKLLIYYTSRLHSGVPSRFSGSGSGTDFTFTISSLQPEDIATYYCQQGNTLPYTFGQGTKVEIKRTVAAPSVFIFPPSDEQLKSGTASVVCLLNNFYPREAKVQWKVDNALQSGNSQESVTEQDSKDSTYSLSSTLTLSKADYEKHKVYACEVTHQGLSSPVTKSFNRGEC
notes: also called Sample # 2
B2: 20# (antibody, human IgG1, kappa)
heavy: QVQLQESGPGLVRPSQTLSLTCTVSGYSITSDHAWSWVRQPPGRGLEWIGYISYSGITTYNPSLKSRVTMLRDTSKNQFSLRLSSVTAADTAVYYCARCLARTTAMDYWGQGSLVTVSSASTKGPSVFPLAPSSKNTSGGTAALGCLVKDYFPEPVTVSWNSGALTSGVHTFPAVLQSSGLYSLSSVVTVPSSSLGTQTYICNVNHKPSNTKVDKKV[letters of human IgG1 Fc not shown]
light: DIQMTQSPSSLSASVGDRVTITCRASQDISSYLNWYQQKPGKAPKLLIYYTSRLHSGVPSRFSGSGSGTDFTFTISSLQPEDIATYYCQQGNTLPYTFGQGTKVEIKRTVAAPSVFIFPPSDEQLKSGTASVVCLLNNFYPREAKVQWKVDNALQSGNSQESVTEQDSKDSTYSLSSTLTLSKADYEKHKVYACEVTHQGLSSPVTKSFNRGEC
notes: also called Sample # 20
B3: 50# (antibody, human IgG1, kappa)
heavy: QVQLQESGPGLVRPSQTLSLTCTVSGYSITSDHAWSWVRQPPGRGLEWIGYISYSGITTYNPSLKSRVTMLRDTSKNQFSLRLSSVTAADTAVYYCARCLARTTAMDYWGQGSLVTVSSASTKGPSVFPLAPSSKSTSGGTAALGCLVKDYFPEPVTVSWNSGALTSGVHTFPAVLQSSGLYSLSSVVTVPSSSLGTQTYICNVNHKPSNTKVDKKV[letters of human IgG1 Fc not shown]
light: DIQMTQSPSSLSASVGDRVTITCRASQDISSYLNWYQQKPGKAPKLLIYYTSRLHSGVPSRFSGSGSGTDFTFTISSLQPEDIATYYCQQGNTLPYTFGQGTKVEIKRTVAAPSVFIFPPSDEQLKSGTASVVCLLNNFYPREAKVQWKVDNALQSGNSQESVTEQDSKDSTYSLSSTLTLSKADYEKHKVYACEVTHQGLSSPVTKSFNRGEC
notes: also called Sample # 50

Legend:
[1] = biological target: T1, sIL-6R (soluble IL-6 receptor; SBH …); assay: SPR (BIAcore 3000), antibody on chip, sIL-6R analyte, 25 C
Method: (§1) All SPR measurements were performed on a BIAcore 3000 instrument (GE Biosciences, Piscataway, N.J.). BIAcore Software-BIAcore 3000 Control Software V3.2 was used for the operation and control of the BIAcore 3000 instrument. BiaEvaluation Software V4.1 was used for the analysis of SPR data from the BIAcore 3000 instrument and data was plotted using Graph Pad Prism Software Version 5. […] The indicated antibodies were used as the ligand for the construction of the reference channel of the chip. […] Each sample was injected for 3 min at a flow rate of 30 μL/min to allow for binding to chip-bound antibody. Next, binding buffer without analyte was sent over the chip at the same flow rate to allow for dissociation of bound analyte. After 500s, remaining bound analyte was removed by injecting regeneration solution (1M Formic acid). Data was analyzed by using the Kinetics Wizard and the manual fitting programs that are both included with the BiaEvaluation Software V4.1.

[2] = biological target: T1, sIL-6R (soluble IL-6 receptor; SBH …); assay: as above; remark: listed apart in the source
Method: as §1

Binder	Kd [1] [nM]	Relative Affinity [1]	koff [1] [s⁻¹]	kon [1] [M⁻¹ s⁻¹]	Kd [2] [nM]	Relative Affinity [2]	koff [2] [s⁻¹]	kon [2] [M⁻¹ s⁻¹]
B1	0.432	3.1 fold vs 25 (Tocilizumab)	8.51e-05	197000	0.585	2.9 fold vs 25 (Tocilizumab)	0.000117	200000
B2	0.751	1.8 fold vs 25 (Tocilizumab)	0.000158	210000	–	–	–	–
B3	–	–	0.000102	144000	–	–	–	–
